These results are taken from PubChem BioAssay AID1508607 (The Scripps Research Institute Molecular Screening Center, 2020).

Sequences of proteins named here, by UniProt entry; tags and fusion partners are left off.
UniProt Q8TDV5, whole entry: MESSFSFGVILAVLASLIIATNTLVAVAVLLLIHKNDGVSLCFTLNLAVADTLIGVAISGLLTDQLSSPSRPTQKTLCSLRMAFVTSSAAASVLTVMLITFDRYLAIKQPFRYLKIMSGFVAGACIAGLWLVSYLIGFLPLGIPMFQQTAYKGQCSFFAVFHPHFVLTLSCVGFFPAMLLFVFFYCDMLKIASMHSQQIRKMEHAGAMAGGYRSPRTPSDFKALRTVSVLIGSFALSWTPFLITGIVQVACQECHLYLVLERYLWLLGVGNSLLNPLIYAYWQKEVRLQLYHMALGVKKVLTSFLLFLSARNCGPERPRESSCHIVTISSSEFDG

This is a selection; strong and weak results do not stand in their true shares. Calls of active or inactive are those of the source.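 The calls were made as follows: active = mean percent activation across replicates above the counterscreen hit cutoff of 9.17%; inactive = the rest.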

The target of this assay is Glucose-dependent insulinotropic receptor (Homo sapiens) (UniProt Q8TDV5). As to the kind of experiment: off-target GPR119 activation – cell-based, PathHunter beta-arrestin, luminescence, set 2, counter-screen for GPR151 activator project, confirmation (AID 1508607).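 Also: 0% = median of sample wells and 100% = wells given EA reagent.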 The note with it: GPR119 PathHunter beta-arrestin cells, 90 min, at 11.2 µM, stronger effect = higher value.
In the case of `CCCN1CCC(Nc2ccc(Cl)cc2)CC1`, the activation was inactive: 2.51%.
